Reference: patent US7329650B2, “Peptides and peptide analogues designed from HFE protein and their uses in the treatment of iron overload diseases” (Bio-Rad Laboratories, Inc., priority 1998, dated 2008)

Chains of the proteins cited; added tags and fusions are not shown.
UniProt P02786, whole entry: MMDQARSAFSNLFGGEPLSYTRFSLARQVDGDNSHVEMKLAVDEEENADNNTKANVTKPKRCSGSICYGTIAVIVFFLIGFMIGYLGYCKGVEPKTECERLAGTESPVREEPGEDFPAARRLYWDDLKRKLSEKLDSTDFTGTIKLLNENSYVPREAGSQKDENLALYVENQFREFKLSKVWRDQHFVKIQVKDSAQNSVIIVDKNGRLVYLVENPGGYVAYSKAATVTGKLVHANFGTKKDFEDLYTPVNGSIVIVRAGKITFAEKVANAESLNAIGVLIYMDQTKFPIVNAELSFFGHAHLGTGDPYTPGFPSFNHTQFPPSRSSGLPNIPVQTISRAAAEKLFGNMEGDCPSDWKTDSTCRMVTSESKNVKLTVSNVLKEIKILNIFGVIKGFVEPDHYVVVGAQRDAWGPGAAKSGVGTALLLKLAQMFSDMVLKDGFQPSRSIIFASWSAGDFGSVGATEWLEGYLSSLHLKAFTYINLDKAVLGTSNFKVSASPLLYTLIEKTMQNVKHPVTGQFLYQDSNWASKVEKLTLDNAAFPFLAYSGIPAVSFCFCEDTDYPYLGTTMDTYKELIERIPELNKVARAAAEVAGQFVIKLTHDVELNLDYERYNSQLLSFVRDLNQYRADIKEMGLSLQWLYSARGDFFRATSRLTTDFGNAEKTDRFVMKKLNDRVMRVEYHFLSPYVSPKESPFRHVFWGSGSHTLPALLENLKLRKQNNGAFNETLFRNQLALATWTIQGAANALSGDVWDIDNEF

Target: T1, transferrin receptor (TfR) (Homo sapiens, UniProt P02786)
T1 construct: endogenous in cells; host or cells: HeLa cells
Assay: Measurement of cell-associated transferrin (labeled transferrin binding to HeLa cells, Scatchard analysis)
Details: for effect on TfR affinity for transferrin (in words): HeLa cells, peptide 50 μM or soluble HFE/β2m 100 nM alone
Procedure: The peptides were solubilized in 0.1N HCl at a concentration of 1 mM for 30 min. at room temperature and stored at 4° C. An aliquot of this solution was diluted with DME plus mg/ml BSA to a concentration of 50 μM and neutralized with 1 M Hepes pH 7.5 to a final concentration of 25 mM Hepes.
HeLa cells were grown to 80-90% confluence at 37° C. at 5% CO2. The cells were washed twice with PBS and detached from the plates using 4 mM EDTA/PBS. The cells were counted and diluted to 5×10^6 cells per ml in DMEM 1% fetal bovine serum (GIBCO) and 5×10^5 suspended cells were used for the TfR binding assay. Binding assays were all done in duplicate. Nonspecific binding was determined. The peptide/media solution was added to the cells in a final volume of 200 μl for 30 min. at 37 ° C. Labeled transferrin (New England Nuclear) was added to the cells at concentrations ranging from 0.5-15 nM. The reaction volume was 500 μL. Incubations were carried out for 20 min. for experiments performed at 37° C., or 90 min on ice for experiments performed at 4° C. At the end of the incubation, the cells were pelleted at 3,000 rpm for 2 min. The supernatant was decanted and radioactivity counted. […] After the final wash, the cells were resuspended in PBS and bound radioactivity was counted. The amount of transferrin bound to the cells was calculated by dividing the cpm bound to the cells by the cpm counted in the supernatant, this ratio was converted to a molar value by multiplying by the amount of transferrin used in the experiment. The Kcell association and the apparent KD were calculated from the negative slope of the line generated by Scatchard analysis or by analyzing the binding curves utilizing nonlinear regression; both methods yielded essentially the same results.
To determine the amount of nonspecific transferrin binding, cells were simultaneously incubated under the same conditions but in the presence of 100× the molar concentration of cold holo-transferrin (Sigma). After 20 min (37° C.), the media was removed and counted in a Beckman 9600 scintillation counter. […]

increase of KD of TfR for transferrin versus HeLa cells alone (FIG. 1 experiment, peptide 50 μM or soluble HFE/β2m 100 nM): approximately 2 fold | effect on TfR affinity for transferrin (in words) (FIG. 2 experiment): characteristic increase in KD | effect on TfR affinity for transferrin (in words) (FIG. 3 experiment): significant increase in KD
Substance: soluble HFE/β2m heterodimers: soluble heterodimers of HFE protein and β2-microglobulin, used at 100 nM as positive comparator
